Results: patent publication US9562060B2, “Heterocyclic pyridone compound, and intermediate, preparation method and use thereof” (SHANGHAI HUILUN LIFE SCIENCE & TECHNOLOGY CO., LTD, priority 2011, dated 2017)

Sequences of proteins named here, by UniProt entry; tags and fusion partners are left off. Residues count along the entry.
UniProt P08581, 25-1390 limits assumed: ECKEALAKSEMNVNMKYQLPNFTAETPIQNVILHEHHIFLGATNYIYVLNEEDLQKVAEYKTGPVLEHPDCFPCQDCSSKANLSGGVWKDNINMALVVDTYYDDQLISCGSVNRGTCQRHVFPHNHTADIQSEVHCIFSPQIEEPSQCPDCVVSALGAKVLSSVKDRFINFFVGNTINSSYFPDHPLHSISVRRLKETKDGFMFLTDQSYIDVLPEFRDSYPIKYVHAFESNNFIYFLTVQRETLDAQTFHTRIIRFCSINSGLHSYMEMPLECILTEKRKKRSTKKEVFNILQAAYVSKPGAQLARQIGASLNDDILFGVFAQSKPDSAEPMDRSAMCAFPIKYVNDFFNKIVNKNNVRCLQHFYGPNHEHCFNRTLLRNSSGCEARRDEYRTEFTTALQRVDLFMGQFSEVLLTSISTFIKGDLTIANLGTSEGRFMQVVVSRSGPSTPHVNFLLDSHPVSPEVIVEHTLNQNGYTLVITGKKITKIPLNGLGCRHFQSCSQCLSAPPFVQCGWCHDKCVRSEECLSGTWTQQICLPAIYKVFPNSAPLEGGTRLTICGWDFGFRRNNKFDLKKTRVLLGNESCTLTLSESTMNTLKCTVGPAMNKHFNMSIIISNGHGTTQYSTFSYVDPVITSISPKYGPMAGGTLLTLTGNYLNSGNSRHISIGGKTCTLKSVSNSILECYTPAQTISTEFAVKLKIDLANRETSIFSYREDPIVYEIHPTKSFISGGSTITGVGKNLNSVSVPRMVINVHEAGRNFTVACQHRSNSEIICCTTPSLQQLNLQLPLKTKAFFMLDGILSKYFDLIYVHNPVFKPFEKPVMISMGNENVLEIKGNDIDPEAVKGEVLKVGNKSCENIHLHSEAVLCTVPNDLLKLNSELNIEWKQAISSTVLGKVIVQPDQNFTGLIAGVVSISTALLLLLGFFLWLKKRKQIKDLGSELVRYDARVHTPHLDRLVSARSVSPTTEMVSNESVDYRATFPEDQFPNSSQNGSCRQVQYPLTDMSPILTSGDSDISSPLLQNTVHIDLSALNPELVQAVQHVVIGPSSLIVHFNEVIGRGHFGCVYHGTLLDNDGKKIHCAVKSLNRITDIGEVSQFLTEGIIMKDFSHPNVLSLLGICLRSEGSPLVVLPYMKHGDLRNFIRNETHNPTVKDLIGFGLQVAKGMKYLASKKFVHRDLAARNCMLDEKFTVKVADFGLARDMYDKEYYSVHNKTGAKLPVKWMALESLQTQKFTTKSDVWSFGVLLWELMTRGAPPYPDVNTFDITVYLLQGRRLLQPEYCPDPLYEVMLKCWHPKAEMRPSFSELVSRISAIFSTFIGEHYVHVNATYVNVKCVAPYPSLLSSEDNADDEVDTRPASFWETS

Target: c-Met kinase (Homo sapiens, UniProt P08581)
Assay: Inhibitory activity of compound to c-Met kinases (Z'-LYTE kinase assay kit)
Conditions: read-out: Strength of activity (inhibition on c-Met kinase, IC50), Tyr 6 substrate peptide
Description: The inhibitory activity of the compound to c-Met kinases in vitro is determined through the following method.
The method described below can be used to determine the inhibiting capacity of the compound of the present invention on the c-Met kinase activity, and the inhibiting capacity is represented by IC50. The half inhibitory concentration IC50 (a concentration of the compound for inhibiting the enzyme activity to 50%) of the compound is obtained by: mixing and reacting a certain amount of kinase with a specific substrate and different concentrations of test compound, and then labeling the substrate with an anti-phosphotyrosine antibody and a […], and finally quantitatively determining the c-Met kinase activity through a time-resolved fluorescence method.
The specific experiment is implemented by using a Z′-LYTE kinase assay kit (Invitrogen, item PV4122). First, the test compound is diluted into 8 different concentrations from 100 μM at an interval of 1:5 with an ATP solution (Invitrogen, item PV3227); 5 μL 2×c-Met (Invitrogen, item PV3143) and 2×Z′-LYTE Tyr 6 substrate peptide are respectively taken up, and added to a 384-well microtiter plate, 5 μL diluted different concentrations of test compound are added in sequence, and the lid is closed. The microtiter plate is incubated for 60 min at room temperature (20° C. to 25° C.); and then 5 μL […] is added, and the lid is closed. The microtiter plate is incubated for 60 min at room temperature (20° C. to 25° C.); and then 5 μL termination reagent is added to the reaction well, to terminate the reaction. Finally, the fluorescence intensity (OD400) of each well is determined in a fluorescence analyzer (excitation wavelength: 400 nm). The inhibition rate is calculated, and the half inhibitory concentration (IC50) of the compound is calculated according to the inhibition rates of different concentrations.
For a negative control group, except that test compound (replaced by 5 μL ATP solution) is not added, all the other reagents are added. In addition, an enzyme-free control group (that is, blank group) is set.

First: CN1CCOc2cc(C(=O)Nc3ccc(Oc4ccnc5[nH]ccc45)c(F)c3)c(=O)n(-c3ccc(F)cc3)c21
Second: COc1ccc2c(Oc3ccc(NC(=O)c4c(N(C)C)c5ncsc5n(-c5ccc(F)cc5)c4=O)cc3F)ccnc2c1
The IC50 of the first is lower: 0.01 to 0.1 µM for the first, 0.1 to 1 µM for the second. The first is the more potent here.

`COc1ccc2c(Oc3ccc(NC(=O)c4c(N(C)CCO)c5ncsc5n(-c5ccc(F)cc5)c4=O)cc3F)ccnc2c1` and `CN(CCO)c1c(C(=O)Nc2ccc(Oc3ccnc(N)c3)c(F)c2)c(=O)n(-c2ccc(F)cc2)c2scnc12` cannot be ordered by IC50: under 0.01 µM for the first, under 0.01 µM for the second.
